Consider one compound from US11370781B2, “Combination therapy for treating cancer” (Epizyme, Inc., priority 2012, dated 2022).

Read-outs that look alike come from different tables or passages of the source.

The test system of the data set is SUDHL10 human lymphoma cells. The protocol: The animals were fed ad libitum water (reverse osmosis 1 ppm Cl) and NIH 31 Modified and Irradiated Lab Diet® consisting of 18.0% crude protein, 5.0% crude fat, and 5.0% crude fiber. The mice were housed on irradiated Enrich-o'cobs™ bedding in static microisolators on a 12-hour light cycle at 20-22° C. (68-72° F.) and 40-60% humidity. All procedures comply with the recommendations of the Guide for Care and Use of Laboratory Animals with respect to restraint, husbandry, surgical procedures, feed and fluid regulation, and veterinary care.
Human lymphoma cell lines were harvested during mid-log phase growth, and resuspended in PBS with 50% Matrigel™ (BD Biosciences). Each mouse received 1×10^7 cells (0.2 mL cell suspension) subcutaneously in the right flank. Tumors were calipered in two dimensions to monitor growth as the mean volume approached the desired 80-120 mm^3 range. Tumor size, in mm^3, was calculated from: […]
Compounds of Formula (IIa) were stored at room temperature and protected from light. On each treatment day, a fresh compound formulations were prepared by suspending the powders in 0.5% sodium carboxymethylcellulose (NaCMC) and 0.1% Tween® 80 in deionized water. […] Formulations were stored away from light at 4° C. prior to administration.
Several chemotherapeutica were used in parallel to Epizyme compounds. Cyclophosphamide (Baxter, Lot #016591), was reconstituted to 20 mg/mL with sterile saline and stored at 4° C. A fresh dosing solution was prepared for each dose by dilution with saline. Doxorubicin (Doxorubicin Meiji®, Meiji Pharmaceutical Co. Ltd., 1 mg/mL) was stored at 4° C. and diluted with saline on each treatment day. Vincristine (Hospira, Inc., 1 mg/mL) was diluted with saline on each treatment day. Prednisone (Boehringer Ingelheim GmbH, 1 mg/mL) was diluted with PBS at the beginning of each 5-day dosing cycle.
Mice were treated at compound doses ranging from 75-600 mg/kg and at TID (3 times a day every 8 h), BID (twice a day every 12 h) or QD (once a day) schedules for various amount of days by oral gavage or injections via the intravenous, intraperitoneal or subcutaneous routes. Each dose was delivered in a volume of 0.2 mL/20 g mouse (10 mL/kg), and adjusted for the last recorded weight of individual animals. The maximal treatment length was 28 days.
Treatment efficacy was determined on the last treatment day. MTV(n), the median tumor volume for the number of animals, n, evaluable on the last day, was determined for each group. Percent tumor growth inhibition (% TGI) can be defined several ways. First, the difference between the MTV(n) of the designated control group and the MTV(n) of the drug-treated group is expressed as a percentage of the MTV(n) of the control group: […]
Another way of calculating % TGI is taking the change of the tumor size from day 1 to day n into account with n being the last treatment day.

For the compound `CCN(c1cc(-c2ccc(CN3CCOCC3)cc2)cc(C(=O)NCc2c(C)cc(C)[nH]c2=O)c1C)C1CCOCC1` [Compound 44, N-((4,6-dimethyl-2-oxo-1,2-dihydropyridin-3-yl)methyl)-5-(ethyl (tetrahydro-2H-pyran-4-yl)amino)-4-methyl-4′-(morpholinomethyl)-[1,1′-biphenyl]-3-carboxamide], the “mice without tumor on day 29” value runs as follows: (Compound 44 250 mg/kg group) 1/16; (Compound 44 500 mg/kg group) 2/15. For the same compound, the “tumor weight on day 28 compared to control mice (vehicle)” value (Compound 44 single agent at 125 mg/kg) is reported as “significantly smaller”. Besides, for the setting “Compound 44 single agent at 125 mg/kg, 250 mg/kg and 500 mg/kg”, the “survival of mice (Kaplan-Meier) compared to control or COP only” value was “increased the survival”. Moreover, the “tumor size at day 28, tumor growth delay cohort” value (Compound 44 single agent, 250 mg/kg and 500 mg/kg) is listed as “small tumors”. In addition, the “tumor growth compared to vehicle treated mice” value (Compound 44 single agent, 250 mg/kg and 500 mg/kg BID, p<0.001) is listed as “statistically significant tumor growth inhibition”. In addition, the “mice euthanized due to poor body condition” value (mouse, in vivo, 500 mg/kg) is listed as “One mouse”.
